Measurements published in PMC11840601, “Single Amino Acid Changes Impact the Ability of Drosophila melanogaster Cecropins to Inhibit Growth of Providencia Pathogens” (ACS Omega, 2025).

How the values were obtained:
P. sneebia = type: cell-based, Providencia sneebia; conditions: broth microdilution, 96-well, Mueller Hinton broth, 25 °C, 16 h, OD600, peptide 64-1 or 128-2 μM
Method: (§1) Each cecropin was tested for its ability to inhibit the growth of Providencia bacterial species, strains that were previously isolated from D. melanogaster.[31] […] Therefore, we hypothesized the virulence of Providencia species may be partially due to differing susceptibility to cecropins. Experiments were conducted at 25 °C (Table 2), which is the temperature at which D. melanogaster are typically housed and likely reflects the temperature of bacterial growth in vivo as fruit flies are poikilotherms. […] Bacteria were determined to be in the log phase of growth when assays were started (Figure S3). P. burhodogranarieaB and P. burhodogranarieaD were the most susceptible to growth inhibition by all three native cecropin peptides (Table 2), which is unsurprising, given their low virulence and ability of D. melanogaster to sometimes clear infection by these bacteria.[32]P. sneebia, P. alcalifaciens, and P. rettgeri were more resistant to all three cecropins, with no growth inhibition observed against P. alcalifaciens in any condition.
(§2) For all antimicrobial testing, bacteria were cultured in order to obtain cells in their exponential growth phase. Liquid bacterial cultures were inoculated from a single bacterial colony on a streaked LB agar plate. Cultures were grown overnight in Mueller Hinton (MH) broth in an orbital shaker at 150 rpm for 16 h at 25 °C. The optical density (Absorbance600 nm) of overnight cultures were determined using a spectrophotometer (SmartSpec Plus, Bio-Rad, USA or Wireless Spectrometer (Vis), PASCO, USA). The overnight culture was then diluted to an optical density of 0.002 in M–H broth and incubated at 25 °C with shaking (150 rpm). Bacterial growth curves were determined experimentally for each bacterial species and at each temperature (Figure S4). Subcultures were grown for 5 h to ensure that each subculture was in its logarithmic growth phase and at a culture density above 0.1 Abs600 nm. After growth of the subculture for the designated time, the optical density was again measured and the bacterial culture was diluted to 0.002 Abs600 nm (∼2 × 10^6 CFU/mL) in M–H broth for use in subsequent assays.
(§3) The MIC for each peptide was determined using microdilution antimicrobial testing in 96-well plates. Peptide stocks were prepared at 1.28 mM in water and diluted to the desired concentration using M–H broth. A serial dilution was performed, with final peptide concentrations ranging from 64–1 μM or 128–2 μM on each plate. The plate was incubated on an orbital shaker (150 rpm) at 25 °C for 16 h. Growth inhibition was determined by measuring the optical density at 600 nm using a BioTek Synergy H1Microplate Reader. The MIC was determined to be the lowest concentration of peptide where there was no detectable difference in optical density when compared to wells lacking bacteria.

P. burhodogranarieaB [1] = type: cell-based, Providencia burhodogranarieaB; conditions: broth microdilution, 96-well, Mueller Hinton broth, 25 °C, 16 h, OD600, peptide 64-1 or 128-2 μM
Method: as §1, §2, §3

P. burhodogranarieaD [2] = assay: Propidium iodide permeability assay by flow cytometry; type: cell-based, Providencia burhodogranarieaD; conditions: after 20 min, 128 μM peptide (below the MIC)
Method: (§4) First, to assess permeability of the bacterial cells post-treatment, we used propidium iodide (PI), a dye that fluoresces when bound to DNA but is impermeable to intact cell membranes. Cells were analyzed by flow cytometry after various concentrations of an AMP were added to a bacterial culture; increasing cell fluorescence was indicative of a loss of membrane integrity, allowing PI to access the DNA within the bacterial cell (Figure 3). […] To directly assess the ability of bacterial cells to replicate and divide post-treatment, bacterial cultures were plated at various times after the addition of AMP. […] These experiments were performed using peptide concentrations at the previously determined MIC for each peptide-bacteria pair (Table 2).
(§5) Samples were prepared containing 5 μg/mL propidium iodide (PI) in MH broth. The cells were assessed by flow cytometry using a Millipore Guava easyCyte 8 at 0, 1, 3, 5, 7, 9, 11, 13, 15, and 20 min post-treatment and were incubated at 25 °C between measurements. […] Data processing was performed using OMIQ. Briefly, gates were set based on the initial scattering profiles of cells. A threshold was determined for red fluorescence; cells above that threshold were determined to be permeable. Gates and thresholds were applied consistently to each sample.
(§6) The number of total cells dropped over time for many samples due to peptide treatment, and the number of total cells at each time-point were scaled to the number of cells at 0 min. The number of destroyed or “missing” cells was determined by calculating the number of permeable and impermeable cells present at a given time, and subtracting those values from the total number of cells at 0 min.

P. burhodogranarieaD [3] = type: cell-based, Providencia burhodogranarieaD; conditions: broth microdilution, 96-well, Mueller Hinton broth, 25 °C, 16 h, OD600, peptide 64-1 or 128-2 μM
Method: as §1, §2, §3

P. rettgeri = type: cell-based, Providencia rettgeri; conditions: broth microdilution, 96-well, Mueller Hinton broth, 25 °C, 16 h, OD600, peptide 64-1 or 128-2 μM
Method: as §1, §2, §3

P. burhodogranarieaB [4] = assay: Propidium iodide permeability assay by flow cytometry; type: cell-based, Providencia burhodogranarieaB; conditions: after 20 min, 128 μM peptide (below the MIC)
Method: as §4, §5, §6

P. alcalifaciens = type: cell-based, Providencia alcalifaciens; conditions: broth microdilution, 96-well, Mueller Hinton broth, 25 °C, 16 h, OD600, peptide 64-1 μM
Method: as §1
For all antimicrobial testing, bacteria were cultured in order to obtain cells in their exponential growth phase. […] The optical density (Absorbance600 nm) of overnight cultures were determined using a spectrophotometer (SmartSpec Plus, Bio-Rad, USA or Wireless Spectrometer (Vis), PASCO, USA). […] Bacterial growth curves were determined experimentally for each bacterial species and at each temperature (Figure S4). […] After growth of the subculture for the designated time, the optical density was again measured and the bacterial culture was diluted to 0.002 Abs600 nm (∼2 × 10^6 CFU/mL) in M–H broth for use in subsequent assays.
The MIC for each peptide was determined using microdilution antimicrobial testing in 96-well plates. […] Growth inhibition was determined by measuring the optical density at 600 nm using a BioTek Synergy H1Microplate Reader. The MIC was determined to be the lowest concentration of peptide where there was no detectable difference in optical density when compared to wells lacking bacteria.

CC[C@H](C)[C@H](NC(=O)CNC(=O)[C@H](CC(C)C)NC(=O)[C@H](CC(=O)O)NC(=O)[C@H](CCC(N)=O)NC(=O)[C@@H](NC(=O)[C@H](CO)NC(=O)[C@H](C)NC(=O)[C@H](CC(=O)O)NC(=O)[C@H](CCCNC(=N)N)NC(=O)[C@@H](NC(=O)[C@H](Cc1c[nH]cn1)NC(=O)[C@H](CCC(N)=O)NC(=O)CNC(=O)[C@@H](NC(=O)[C@H](CCCNC(=N)N)NC(=O)[C@H](CCC(=O)O)NC(=O)[C@@H](NC(=O)[C@H](CCCCN)NC(=O)[C@H](CCCCN)NC(=O)CNC(=O)[C@H](CC(C)C)NC(=O)[C@H](CCCCN)NC(=O)[C@H](CCCNC(=N)N)NC(=O)[C@H](CC(C)C)NC(=O)[C@H](Cc1c[nH]c2ccccc12)NC(=O)CN)[C@@H](C)CC)[C@@H](C)CC)[C@@H](C)O)[C@@H](C)CC)C(=O)N[C@@H](C)C(=O)N[C@@H](CCC(N)=O)C(=O)N[C@@H](CCC(N)=O)C(=O)N[C@@H](C)C(=O)N[C@@H](C)C(=O)N[C@@H](CC(N)=O)C(=O)N[C@H](C(=O)N[C@@H](C)C(=O)N[C@@H](C)C(=O)N[C@H](C(=O)N[C@@H](C)C(=O)N[C@@H](CCCNC(=N)N)C(=O)NCC(N)=O)[C@@H](C)O)C(C)C [CecBD]
Minimum Inhibitory Concentration (P. sneebia): >128 µM
Minimum Inhibitory Concentration (P. burhodogranarieaB [1]): >128 µM
cells permeable to propidium iodide (P. burhodogranarieaD [2]): less than 30%
Minimum Inhibitory Concentration (P. burhodogranarieaD [3]): >128 µM
Minimum Inhibitory Concentration (P. rettgeri): >128 µM
cells permeable to propidium iodide (P. burhodogranarieaB [4]): less than 30%

CC[C@H](C)[C@H](NC(=O)CNC(=O)[C@H](CC(C)C)NC(=O)[C@@H](NC(=O)[C@H](CCC(N)=O)NC(=O)[C@@H](NC(=O)[C@@H](NC(=O)[C@H](C)NC(=O)[C@H](CC(=O)O)NC(=O)[C@H](CCCNC(=N)N)NC(=O)[C@@H](NC(=O)[C@H](Cc1c[nH]cn1)NC(=O)[C@H](CCC(N)=O)NC(=O)CNC(=O)[C@@H](NC(=O)[C@H](CCCNC(=N)N)NC(=O)[C@H](CCC(=O)O)NC(=O)[C@@H](NC(=O)[C@H](CCCCN)NC(=O)[C@H](CCCCN)NC(=O)CNC(=O)[C@@H](NC(=O)[C@H](CCCCN)NC(=O)[C@H](CCCCN)NC(=O)[C@H](CC(C)C)NC(=O)[C@H](Cc1c[nH]c2ccccc12)NC(=O)CN)[C@@H](C)CC)[C@@H](C)CC)C(C)C)[C@@H](C)O)[C@@H](C)O)[C@@H](C)CC)C(C)C)C(=O)N[C@@H](C)C(=O)N[C@@H](CCC(N)=O)C(=O)N[C@@H](CCC(N)=O)C(=O)N[C@@H](C)C(=O)N[C@@H](C)C(=O)N[C@@H](CC(N)=O)C(=O)N[C@H](C(=O)N[C@@H](C)C(=O)N[C@@H](C)C(=O)N[C@H](C(=O)N[C@@H](C)C(=O)N[C@@H](CCCNC(=N)N)C(=O)NCC(N)=O)[C@@H](C)O)C(C)C [CecAV]
Minimum Inhibitory Concentration (P. sneebia): 32 µM
Minimum Inhibitory Concentration (P. burhodogranarieaB [1]): 4 µM
Minimum Inhibitory Concentration (P. burhodogranarieaD [3]): 2 µM
Minimum Inhibitory Concentration (P. rettgeri): 64 µM

CC[C@H](C)[C@H](NC(=O)CNC(=O)[C@H](CC(C)C)NC(=O)CNC(=O)[C@H](CCC(N)=O)NC(=O)[C@@H](NC(=O)[C@@H](NC(=O)[C@H](C)NC(=O)[C@H](CC(=O)O)NC(=O)[C@H](CCCNC(=N)N)NC(=O)[C@@H](NC(=O)[C@H](Cc1c[nH]cn1)NC(=O)[C@H](CCC(N)=O)NC(=O)CNC(=O)[C@@H](NC(=O)[C@H](CCCNC(=N)N)NC(=O)[C@H](CCC(=O)O)NC(=O)[C@@H](NC(=O)[C@H](CCCCN)NC(=O)[C@H](CCCCN)NC(=O)CNC(=O)[C@H](CC(C)C)NC(=O)[C@H](CCCCN)NC(=O)[C@H](CCCCN)NC(=O)[C@H](CC(C)C)NC(=O)[C@H](Cc1c[nH]c2ccccc12)NC(=O)CN)[C@@H](C)CC)[C@@H](C)CC)[C@@H](C)O)[C@@H](C)O)[C@@H](C)CC)C(=O)N[C@@H](C)C(=O)N[C@@H](CCC(N)=O)C(=O)N[C@@H](CCC(N)=O)C(=O)N[C@@H](C)C(=O)N[C@@H](C)C(=O)N[C@@H](CC(N)=O)C(=O)N[C@H](C(=O)N[C@@H](C)C(=O)N[C@@H](C)C(=O)N[C@H](C(=O)N[C@@H](C)C(=O)N[C@@H](CCCNC(=N)N)C(=O)NCC(N)=O)[C@@H](C)O)C(C)C [CecC]
Minimum Inhibitory Concentration (P. alcalifaciens): >64 µM
Minimum Inhibitory Concentration (P. sneebia): 64 µM
Minimum Inhibitory Concentration (P. burhodogranarieaB [1]): 4 µM
Minimum Inhibitory Concentration (P. burhodogranarieaD [3]): 4 µM
Minimum Inhibitory Concentration (P. rettgeri): >64 µM

CC[C@H](C)[C@H](NC(=O)CNC(=O)[C@H](CC(C)C)NC(=O)CNC(=O)[C@H](CCC(N)=O)NC(=O)[C@@H](NC(=O)[C@H](CO)NC(=O)[C@H](C)NC(=O)[C@H](CC(=O)O)NC(=O)[C@H](CCCNC(=N)N)NC(=O)[C@@H](NC(=O)[C@H](Cc1c[nH]cn1)NC(=O)[C@H](CCC(N)=O)NC(=O)CNC(=O)[C@@H](NC(=O)[C@H](CCCNC(=N)N)NC(=O)[C@H](CCC(=O)O)NC(=O)[C@@H](NC(=O)[C@H](CCCCN)NC(=O)[C@H](CCCCN)NC(=O)CNC(=O)[C@H](CC(C)C)NC(=O)[C@H](CCCCN)NC(=O)[C@H](CCCNC(=N)N)NC(=O)[C@H](CC(C)C)NC(=O)[C@H](Cc1c[nH]c2ccccc12)NC(=O)CN)[C@@H](C)CC)[C@@H](C)CC)[C@@H](C)O)[C@@H](C)CC)C(=O)N[C@@H](C)C(=O)N[C@@H](CCC(N)=O)C(=O)N[C@@H](CCC(N)=O)C(=O)N[C@@H](C)C(=O)N[C@@H](C)C(=O)N[C@@H](CC(N)=O)C(=O)N[C@H](C(=O)N[C@@H](C)C(=O)N[C@@H](C)C(=O)N[C@H](C(=O)N[C@@H](C)C(=O)N[C@@H](CCCNC(=N)N)C(=O)NCC(N)=O)[C@@H](C)O)C(C)C [CecBG]
Minimum Inhibitory Concentration (P. sneebia): 128 µM
Minimum Inhibitory Concentration (P. burhodogranarieaB [1]): 8 µM
Minimum Inhibitory Concentration (P. burhodogranarieaD [3]): 32 µM
